# Tested on: cardiac fibroblasts (cFBs)
# Assay: BrdU cell proliferation assay, cardiac fibroblasts in cardiomyocyte/cardiac fibroblast co-culture
# Assay type: cell-based, rat
# Details: BIO 5 μM and 10 μM vs LiCl, same manner as Example 3, FIG. 8
# Procedure: Hearts of two-day-old rats were removed and washed with physiological saline. Thereafter, left cardiac muscles were separated from the hearts in a sterilization cabinet, and microtomed into segments. These myocardial tissues were added to a collagenase enzyme solution, reacted at 37° C. while stirring, and then centrifuged to collect only the supernatant which were then kept in a cell culture flask. After an hour, cardiomyocytes which floated when the supernatant was transferred to a new culture flask were separated from cardiac fibroblasts attached to the bottom of the cell culture flask. At this point, both the cardiomyocytes and the cardiac fibroblasts were cultured in a Dulbecco's modified Eagle's medium (DMEM) supplemented with 10% fetal bovine serum (FBS) and then used for experiments.
# After 2 days and 5 days, the proliferation of cells was quantified. […]
# Then, cells which were not stained with cardiac troponin I but stained with DAPI were regarded as cardiac fibroblasts and then counted.
# An inhibitory effect on the proliferation of the cardiac fibroblasts was comparatively evaluated in the same manner as in Example 3 in the BIO-treated group and the LiCl-treated group.
smiles,measurement,value
"O=C1Nc2cc(Br)ccc2/C1=C1/Nc2ccccc2/C1=N\O [BIO, (2′Z,3′E)-6-bromoindirubin-3′-oxime]",inhibitory effect on the proliferation of the cardiac fibroblasts,observed

# From patent US9757356B2 (CHONNAM NATIONAL UNIVERSITY HOSPITAL, priority 2015, dated 2017)
